One may read the EC50 as the midpoint of the concentration-response curve.

The chains behind the UniProt entries cited, without tags or fusion partners. Residues count along the entry.
UniProt P33681, 35-242 limits assumed: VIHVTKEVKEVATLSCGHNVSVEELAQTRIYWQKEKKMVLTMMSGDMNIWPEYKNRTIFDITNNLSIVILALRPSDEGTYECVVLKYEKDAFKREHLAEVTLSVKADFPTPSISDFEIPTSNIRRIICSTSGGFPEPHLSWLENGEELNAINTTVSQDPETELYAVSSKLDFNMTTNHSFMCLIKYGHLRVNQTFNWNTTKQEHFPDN

This note sets out measurements from patent US8309552B2, “Immunomodulating heterocyclic compounds” (Medigene AG, priority 2003, dated 2012).

In the assay the target is CD80-CD28 interaction (Homo sapiens, UniProt P33681). Put plainly: Homogenous Time Resolved Fluorescence (HTRF) assay, cell free. Particulars: read-out: Activity (EC50 in the HTRF assay), 4 hours at room temperature. As for the experimental part: Homogenous Time Resolved Fluorescence Assay
The examples described above were tested in a cell free Homogenous Time Resolved Fluorescence (HTRF) assay to determine their activity as inhibitors of the CD80-CD28 interaction.
In the assay, europium and allophycocyanin (APC) are associated with CD28 and CD80 indirectly (through antibody linkers) to form a complex, which brings the europium and APC into close proximity to generate a signal. The complex comprises the following six proteins: fluorescent label 1, linker antibody 1, CD28 fusion protein, CD80 fusion protein, linker antibody 2, and fluorescent label 2. The table below describes these reagents in greater detail.
On formation of the complex, europium and APC are brought into proximity and a signal is generated.
Non-specific interaction was measured by substituting a mouse Fab fragment (C215) for the CD80 mouse Fab fragment fusion protein (1.9 μg/ml). The assay was carried out in black 384 well plates in a final volume of 30 μl. Assay buffer: 50 mM Tris-HCl, 150 mM NaCl pH7.8, containing 0.1% BSA (w/v) added just prior to use.
Compounds were added to the above reagents in a concentration series ranging between 100 μM-1.7 nM. The reaction was incubated for 4 hours at room temperature. Dual measurements were made using a Wallac Victor 1420 Multilabel Counter. First measurement: excitation 340 nm, emission 665 nm, delay 50 μs, window time 200 μs. second measurement: excitation 340 nm, emission 615 nm, delay 50 μs, window time 200 μs. Counts were automatically corrected for fluorescence crossover, quenching and background. The EC50 activities of compounds tested are recorded as: EC50:*=>10 μM,**=1-10 μM,***=<1 μM.
For orientation: TR-FRET usually uses a lanthanide donor and a delayed reading to cut background.

[1] abbreviates: cell-free HTRF, concentration series 100 μM-1.7 nM.
Where [2] appears, read: cell free HTRF assay, concentration series 100 μM-1.7 nM.

Structures are written as SMILES. Where two headings read alike, the source gives them in different places. A value given as a limit tells only on which side of the number the result lay.

Turning to `O=C(NCCC(F)=C(F)F)c1ccc(-n2[nH]c3c(nnc4c(F)cccc43)c2=O)cc1`, the EC50 under setting [1] lay within 1000 to 10000 nM.

Consider `O=C(NCCC1CC(F)(F)CCN1)c1ccc(-n2[nH]c3c(nnc4c(F)cccc43)c2=O)cc1` (stereo not drawn), for which the EC50 under setting [1] was < 1000 nM.

With `CCOC(=O)CCCNC(=O)c1ccc(-n2[nH]c3c(nnc4ccccc43)c2=O)cc1`, under “cell-free HTRF, compound concentration series 100 μM-1.7 nM”, the EC50 was > 10000 nM.

As to `O=C(NCCC(F)(F)F)c1ccc(-n2[nH]c3c(nnc4c(F)cccc43)c2=O)cc1`, the EC50 under setting [2] is < 1000 nM.

Consider `O=C(NCCCCN1CCCC1)c1ccc(-n2[nH]c3c(nnc4c(F)cccc43)c2=O)cc1` [Example 6, 4-(6-fluoro-3-oxo-1,3-dihydro-2H-pyrazolo[4,3-c]cinnolin-2-yl)-N-(pyrrolidin-1-yl-butyl)benzamide], for which the EC50 under setting [2] was < 1000 nM.

For `Cc1cc(C)cc(CN2CCC(NC(=O)c3ccc(-n4[nH]c5c(nnc6c(F)cccc65)c4=O)cc3)CC2)c1`, the EC50 under setting [2] fell in the range of 1000 to 10000 nM.

Turning to `O=C(NCCCNC1CCCCC1)c1ccc(-n2[nH]c3c(nnc4ccc(Cl)cc43)c2=O)cc1`, the EC50 under setting [1] is < 1000 nM.

For the compound `O=C(NCCCNC1CCCCC1)c1ccc(-n2[nH]c3c(nnc4ccc(F)cc43)c2=O)cc1`, the EC50 under setting [2] was < 1000 nM.

Take `O=C(NC(c1ccccc1)C(O)c1ccccc1)c1ccc(-n2[nH]c3c(nnc4c(F)cccc43)c2=O)cc1` (stereo not drawn): the EC50 under setting [1] was > 10000 nM.

`O=C(Nc1ccncc1)c1ccc(-n2[nH]c3c(nnc4ccccc43)c2=O)cc1`: the EC50 under setting [2] was > 10000 nM.

Take `O=C(NCC(F)F)c1ccc(-n2[nH]c3c(nnc4ccc(F)cc43)c2=O)cc1`: under setting [1], the EC50 is < 1000 nM.

Take `CN1C2CCC1CC(NC(=O)c1ccc(-n3[nH]c4c(nnc5ccccc54)c3=O)cc1)C2` (stereo not drawn): the EC50 under setting [2] was < 1000 nM.

Consider `CCCNCCNC(=O)c1ccc(-n2[nH]c3c(nnc4ccc(F)cc43)c2=O)cc1`, for which the EC50 under setting [2] was < 1000 nM.

For the compound `O=C(NCC(F)(F)C(F)(F)F)c1ccc(-n2[nH]c3c(nnc4c(F)cccc43)c2=O)cc1`, the EC50 under setting [2] is < 1000 nM.

With `O=C(NCCCCNC1CCCCC1)c1ccc(-n2[nH]c3c(nnc4c(F)cccc43)c2=O)cc1`, the EC50 under setting [2] is < 1000 nM.

In the case of `Cc1cccc(CCNC(=O)c2ccc(-n3[nH]c4c(nnc5c(F)cccc54)c3=O)cc2)c1`, the EC50 under setting [2] was 1000 to 10000 nM.

Regarding `CNCCCNC(=O)Nc1ccc(-n2[nH]c3c(nnc4ccccc43)c2=O)cc1`, the EC50 under setting [2] is < 1000 nM.

On to `CCN(CC)CCCCNC(=O)c1ccc(-n2[nH]c3c(nnc4c(F)cccc43)c2=O)cc1`, for which the EC50 under setting [2] was < 1000 nM.

In the case of `CC(C)(CN)CNC(=O)c1ccc(-n2[nH]c3c(nnc4c(F)cccc43)c2=O)cc1`, the EC50 under setting [1] was < 1000 nM.

Turning to `N#CC(NC(=O)c1ccc(-n2[nH]c3c(nnc4c(F)cccc43)c2=O)cc1)c1ccccc1` (stereo not drawn), under setting [1], the EC50 is 1000 to 10000 nM.

As to `O=C(c1ccc(-n2[nH]c3c(nnc4c(F)cccc43)c2=O)cc1)N1CCCCCCC1`, under setting [1], the EC50 was 1000 to 10000 nM.
